This series in a line: Pharmacokinetic study, stomach and plasma concentrations. It counts as in vivo, C57BL/6 mice. Particulars: both sexes, C57BL/6, mouse, plasma; single oral 30 mg/kg; read-out: maximum concentration (Cmax) in plasma.

As for `C/C=C/COc1cc2c(cc1OC)-c1c(C/C=C/C)c3ccc(OC)c(OC)c3c[n+]1CC2` [Compound 8], the Cmax is less than 100 ng/mL.

The record behind these values is publication PMC11228022 (Signal Transduction and Targeted Therapy, 2024).
